# Literature values in US5847092A (Zambon Group S.p.A., priority 1994, dated 1998).
# Settings: literature; cited from earlier work
compound,measurement,value
CC[C@H]1OC(=O)[C@H](C)[C@@H](O[C@H]2C[C@@](C)(OC)[C@@H](O)[C@H](C)O2)[C@H](C)[C@@H](O[C@@H]2O[C@H](C)C[C@H](N(C)C)[C@H]2O)[C@](C)(O)C[C@@H](C)C(=O)[C@H](C)[C@@H](O)[C@]1(C)O [Erythromycin A],pharmacokinetic properties / bioavailability (in words),poor bioavailability
